Experimental data taken from ChEMBL document CHEMBL4359846, “Design, synthesis, and antifibrosis evaluation of 4-(benzo-[c][1,2,5]thiadiazol-5-yl)-3(5)-(6-methyl- pyridin-2-yl)pyrazole and 3(5)-(6-methylpyridin- 2-yl)-4-(thieno-[3,2,-c]pyridin-2-yl)pyrazole derivatives” (Eur J Med Chem, 2019).
Activity calls are given as the source filed them. The calls are words filed in the database; no cut-off is given here.

How the values were obtained:
[1] = target: T1, TGF-beta receptor type-1 (Homo sapiens) (UniProt P36897); conditions: 5 uM
T1 sequence (whole entry): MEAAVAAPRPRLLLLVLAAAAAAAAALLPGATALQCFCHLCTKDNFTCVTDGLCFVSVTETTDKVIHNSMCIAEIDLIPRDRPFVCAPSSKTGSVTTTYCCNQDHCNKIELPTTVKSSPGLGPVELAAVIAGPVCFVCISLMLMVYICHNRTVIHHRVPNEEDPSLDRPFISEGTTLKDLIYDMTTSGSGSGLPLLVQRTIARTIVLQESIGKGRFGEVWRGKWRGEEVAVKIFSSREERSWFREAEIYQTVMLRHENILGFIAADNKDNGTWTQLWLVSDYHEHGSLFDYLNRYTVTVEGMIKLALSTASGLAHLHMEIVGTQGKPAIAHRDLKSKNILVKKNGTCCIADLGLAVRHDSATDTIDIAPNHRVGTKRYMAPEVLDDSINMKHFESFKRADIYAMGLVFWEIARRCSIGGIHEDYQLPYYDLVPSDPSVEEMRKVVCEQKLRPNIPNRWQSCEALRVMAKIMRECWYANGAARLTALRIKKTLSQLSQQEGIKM

[2] = target: T1, TGF-beta receptor type-1 (Homo sapiens); conditions: 5 uM; remark: listed apart in the source
[3] = target: T1, TGF-beta receptor type-1 (Homo sapiens); conditions: 1.25 to 5 uM
[4] = target: T1, TGF-beta receptor type-1 (Homo sapiens); conditions: 1.25 to 5 uM; remark: listed apart in the source
[5] = target: T1, TGF-beta receptor type-1 (Homo sapiens); conditions: 1.25 to 5 uM; remark: listed apart in the source
[6] = target: T1, TGF-beta receptor type-1 (Homo sapiens); conditions: 1.25 to 5 uM; remark: listed apart in the source
[7] = target: T1, TGF-beta receptor type-1 (Homo sapiens); experiment: Inhibition of human recombinant GST-tagged ALK5 expressed in Sf9 insect cells at 10 uM using casein as substrate incubated for 60 mins in presence of [33P]-ATP by radiometric assay relative to control

inhibition [1]	inhibition [2]	inhibition [3]	inhibition [4]	inhibition [5]	inhibition [6]	inhibition [7] [%]	SMILES
Active	Active	–	–	–	–	–	Cc1cccc(-c2nn3c(c2-c2ccnc4ccc(C(N)=O)cc24)CCC3)n1
–	–	Active	Active	Active	Active	–	Cc1cccc(-c2nn(CC(=S)Nc3cccc(F)c3)cc2-c2ccc3nsnc3c2)n1
–	–	Active	Active	Active	Active	98 to 100	Cc1cccc(-c2nn(CC(=O)Nc3ccccc3)cc2-c2cc3cnccc3s2)n1
